Experimental data: US10202356B2, “JAK2 and ALK2 inhibitors and methods for their use” (Tolero Pharmaceuticals, Inc., priority 2013, dated 2019)

Test system: hepcidin expression induced by BMP2 in HEPG2 cells
Assay: BMP2-induced hepcidin expression in HEPG2 cells
Format: cell-based
Conditions: BMP2 at 100 ng/μL

B1: BMP2: induces hepcidin expression by binding to and activating ALK2 (protein, UniProt P12643 283-396, looked up)
Bone morphogenetic protein 2: QAKHKQRKRLKSSCKRHPLYVDFSDVGWNDWIVAPPGYHAFYCHGECPFPLADHLNSTNHAIVQTLVNSVNSKIPKACCVPTELSAISMLYLDENEKVVLKNYQDMVVEGCGCR
hepcidin increase caused by BMP2 addition: > 20 fold
